ChEMBL document CHEMBL2346538, “Synthesis, cyclooxygenase inhibitory effects, and molecular modeling study of 4-aryl-5-(4-(methylsulfonyl)phenyl)-2-alkylthio and -2-alkylsulfonyl-1H-imidazole derivatives” (Bioorg Med Chem, 2013)

Chains of the proteins cited; added tags and fusions are not shown.
UniProt P23219, whole entry: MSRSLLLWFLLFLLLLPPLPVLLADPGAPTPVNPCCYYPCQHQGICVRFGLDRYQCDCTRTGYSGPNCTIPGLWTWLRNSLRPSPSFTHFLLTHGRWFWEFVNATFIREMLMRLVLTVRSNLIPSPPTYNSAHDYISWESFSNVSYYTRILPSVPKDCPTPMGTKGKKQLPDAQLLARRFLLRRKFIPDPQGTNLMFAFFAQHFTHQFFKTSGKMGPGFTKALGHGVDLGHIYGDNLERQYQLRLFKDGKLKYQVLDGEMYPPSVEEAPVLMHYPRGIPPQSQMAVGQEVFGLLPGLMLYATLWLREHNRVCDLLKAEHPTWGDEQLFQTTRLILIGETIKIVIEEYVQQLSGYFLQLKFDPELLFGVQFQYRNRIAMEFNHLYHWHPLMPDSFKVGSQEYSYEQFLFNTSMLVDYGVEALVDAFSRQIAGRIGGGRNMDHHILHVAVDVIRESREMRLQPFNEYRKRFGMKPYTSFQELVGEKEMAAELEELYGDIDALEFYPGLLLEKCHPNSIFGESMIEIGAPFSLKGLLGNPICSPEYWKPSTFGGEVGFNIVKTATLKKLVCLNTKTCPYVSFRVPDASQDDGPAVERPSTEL

Experiments:
[1] = molecular target: Prostaglandin G/H synthase 1 (Homo sapiens, UniProt P23219)
Homo sapiens = organism: Homo sapiens; experiment: Selectivity index, ratio of IC50 for COX1 in human blood to IC50 for COX2 in human blood

SMILES	IC50 [1] [nM]	Ratio IC50 (Homo sapiens)
CS(=O)(=O)c1ccc(-c2[nH]c(S(C)(=O)=O)nc2-c2ccccc2)cc1	340	
CSc1nc(-c2ccc(F)cc2)c(-c2ccc(S(C)(=O)=O)cc2)[nH]1	210	3.07
CSc1nc(-c2ccc(Cl)cc2)c(-c2ccc(S(C)(=O)=O)cc2)[nH]1	320	
CCS(=O)(=O)c1nc(-c2ccc(Cl)cc2)c(-c2ccc(S(C)(=O)=O)cc2)[nH]1	440	
CCS(=O)(=O)c1nc(-c2ccc(F)cc2)c(-c2ccc(S(C)(=O)=O)cc2)[nH]1	400	
CS(=O)(=O)c1ccc(-c2[nH]c(S(C)(=O)=O)nc2-c2ccc(Cl)cc2)cc1	420	
CCSc1nc(-c2ccc(Cl)cc2)c(-c2ccc(S(C)(=O)=O)cc2)[nH]1	390	3.39
CCS(=O)(=O)c1nc(-c2ccccc2)c(-c2ccc(S(C)(=O)=O)cc2)[nH]1	360	
CSc1nc(-c2ccccc2)c(-c2ccc(S(C)(=O)=O)cc2)[nH]1	160	
CCSc1nc(-c2ccc(F)cc2)c(-c2ccc(S(C)(=O)=O)cc2)[nH]1	240	
CCSc1nc(-c2ccccc2)c(-c2ccc(S(C)(=O)=O)cc2)[nH]1	170	
CS(=O)(=O)c1ccc(-c2[nH]c(S(C)(=O)=O)nc2-c2ccc(F)cc2)cc1	390	
